Source: publication PMC12117711, “The contribution of cyclic imide stereoisomers on cereblon-dependent activity†” (Chemical Science, 2025)
Several values for one entry are separate records, joined by “and”; a condition that tells them apart may be missing. Equal values may be shown once.

Chains of the proteins cited; added tags and fusions are not shown. Lines headed by an entry give the natural chain unless they say otherwise; changes in a name come on top. Residues count along the entry.
UniProt Q96SW2, whole entry: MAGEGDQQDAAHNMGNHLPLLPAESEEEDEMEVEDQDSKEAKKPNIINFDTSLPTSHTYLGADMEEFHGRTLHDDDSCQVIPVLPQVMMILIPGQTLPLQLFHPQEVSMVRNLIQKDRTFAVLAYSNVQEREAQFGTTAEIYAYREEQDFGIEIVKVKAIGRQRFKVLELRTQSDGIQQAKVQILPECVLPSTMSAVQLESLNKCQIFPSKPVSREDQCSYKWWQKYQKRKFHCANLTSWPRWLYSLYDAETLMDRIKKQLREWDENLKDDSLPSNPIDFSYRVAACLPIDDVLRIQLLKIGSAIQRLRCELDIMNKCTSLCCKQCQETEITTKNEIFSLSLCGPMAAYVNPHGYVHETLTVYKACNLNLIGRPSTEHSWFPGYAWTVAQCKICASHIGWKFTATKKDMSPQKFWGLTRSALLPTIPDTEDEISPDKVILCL
UniProt Q96SW2, 318-426 limits assumed: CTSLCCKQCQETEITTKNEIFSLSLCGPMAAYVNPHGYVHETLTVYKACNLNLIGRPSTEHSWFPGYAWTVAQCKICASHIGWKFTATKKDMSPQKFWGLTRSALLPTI
UniProt Q16531, whole entry partner: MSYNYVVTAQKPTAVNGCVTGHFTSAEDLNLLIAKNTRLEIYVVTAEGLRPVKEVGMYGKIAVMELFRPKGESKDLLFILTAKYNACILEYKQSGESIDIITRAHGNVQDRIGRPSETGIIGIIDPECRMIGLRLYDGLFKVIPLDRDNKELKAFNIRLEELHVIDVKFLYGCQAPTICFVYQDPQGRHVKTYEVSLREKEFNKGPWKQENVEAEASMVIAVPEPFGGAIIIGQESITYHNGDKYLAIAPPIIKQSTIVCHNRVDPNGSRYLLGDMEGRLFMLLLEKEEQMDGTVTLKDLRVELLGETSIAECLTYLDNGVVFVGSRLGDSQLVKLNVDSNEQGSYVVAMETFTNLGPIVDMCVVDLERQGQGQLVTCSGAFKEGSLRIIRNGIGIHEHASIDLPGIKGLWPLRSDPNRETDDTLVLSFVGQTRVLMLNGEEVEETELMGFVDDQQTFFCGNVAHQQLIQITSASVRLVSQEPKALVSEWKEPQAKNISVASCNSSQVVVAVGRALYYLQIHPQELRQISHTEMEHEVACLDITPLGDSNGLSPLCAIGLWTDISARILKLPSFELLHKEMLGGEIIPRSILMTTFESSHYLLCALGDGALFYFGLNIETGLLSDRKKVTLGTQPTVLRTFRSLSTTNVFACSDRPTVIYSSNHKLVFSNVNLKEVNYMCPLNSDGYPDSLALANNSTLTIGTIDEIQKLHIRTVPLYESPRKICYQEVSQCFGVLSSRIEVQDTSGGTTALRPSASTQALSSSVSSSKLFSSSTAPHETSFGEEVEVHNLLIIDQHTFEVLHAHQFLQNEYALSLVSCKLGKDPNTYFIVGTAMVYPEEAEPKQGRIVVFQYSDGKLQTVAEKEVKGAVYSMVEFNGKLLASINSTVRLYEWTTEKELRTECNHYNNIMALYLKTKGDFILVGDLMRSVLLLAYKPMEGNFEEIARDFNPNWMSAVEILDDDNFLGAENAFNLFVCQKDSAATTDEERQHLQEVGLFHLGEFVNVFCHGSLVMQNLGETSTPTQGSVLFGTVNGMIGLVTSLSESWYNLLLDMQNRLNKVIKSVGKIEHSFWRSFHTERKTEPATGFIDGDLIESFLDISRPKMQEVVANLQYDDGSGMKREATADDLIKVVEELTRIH

Assays:
His6-CRBN/DDB1 = His6-CRBN/DDB1 (Homo sapiens, UniProt Q96SW2); assay: TR-FRET ligand displacement assay (Thal-FITC tracer) with His6-CRBN/DDB1; details: Protein CRBN; for pIC50 (M) / IC50: Thalidomide-FITC tracer 50 nM; for Kd / pKD (M): from IC50 with Correction Factor 1.43; for IC50: protein […]
[1] = biological target: thalidomide-binding domain of CRBN (Homo sapiens, UniProt Q96SW2); assay: TR-FRET ligand displacement assay with the thalidomide-binding domain; details: Protein CULT; for IC50: Thal-FITC tracer 775 nM, protein 50 nM; for Kd / pKD (M): from IC50 with Correction Factor 2.03
[2] = biological target: His6-CRBN/DDB1 complex with BRD4(BD2) (Homo sapiens, UniProt O60885+Q96SW2); assay: TR-FRET ligand displacement assay with His6-CRBN/DDB1 in the presence of BRD4(BD2); details: Protein CRBN + BD2; for IC50: Thalidomide-FITC tracer 50 nM; for Kd / pKD (M): from IC50 with Correction Factor 1.43
[3] = biological target: His6-CRBN/DDB1 and GST-BRD4(BD2) (Homo sapiens, UniProt O60885+Q96SW2); assay: AlphaScreen ternary complex formation, His6-CRBN/DDB1 and GST-BRD4(BD2)

[2H]C1([2H])C[C@]([2H])(N2Cc3cc(NC(=O)CC4(CCC#C)N=N4)ccc3C2=O)C(=O)NC1=O
pIC50 (M) (His6-CRBN/DDB1): 7.99 M
Kd (His6-CRBN/DDB1): 7.17 nM and 7 nM
pKD (M) (His6-CRBN/DDB1): 8.14 M
pIC50 (M) [1]: 5.83 M
IC50 [1]: 1480 nM
Kd [1]: 733 nM
pKD (M) [1]: 6.13 M

Cc1ccc(NC(=O)NCc2ccc3c(c2)CN(C2CCC(=O)NC2=O)C3=O)cc1Cl (racemic) [rac-CC-885]
pIC50 (M) (His6-CRBN/DDB1): 8.21 M

[2H]C1([2H])CC([2H])(N2Cc3cc(NC(=O)CCCCCCCCNC(=O)C[C@@H]4N=C(c5ccc(Cl)cc5)c5c(sc(C)c5C)-n5c(C)nnc54)ccc3C2=O)C(=O)NC1=O (mixture of isomers)
pIC50 (M) [2]: 7.07 M
IC50 [2]: 84.3 nM and 84 nM
Kd [2]: 59.1 nM and 59 nM
pKD (M) [2]: 7.23 M
pIC50 (M) (His6-CRBN/DDB1): 8.45 M
IC50 (His6-CRBN/DDB1): 3.53 nM

Cc1sc2c(c1C)C(c1ccc(Cl)cc1)=N[C@@H](CC(=O)NCCCCCCCCC(=O)N[C@@H](Cc1ccccc1)C(=O)N[C@@H]1CC(=O)NC1=O)c1nnc(C)n1-2
pIC50 (M) (His6-CRBN/DDB1): 5.74 M
IC50 (His6-CRBN/DDB1): 1810 nM
Kd (His6-CRBN/DDB1): 1270 nM
pKD (M) (His6-CRBN/DDB1): 5.90 M
ternary complex formation between His6-CRBN/DDB1 and GST-BRD4(BD2) [3]: minimally promoted the ternary complex

[2H]C1([2H])CC([2H])(N2Cc3cc(NC(=O)CC4(CCC#C)N=N4)ccc3C2=O)C(=O)NC1=O (racemic)
pIC50 (M) (His6-CRBN/DDB1): 7.60 M
Kd (His6-CRBN/DDB1): 17.7 nM and 18 nM
pKD (M) (His6-CRBN/DDB1): 7.75 M
pIC50 (M) [1]: 5.58 M
IC50 [1]: 2630 nM and 2640 nM
Kd [1]: 1300 nM
pKD (M) [1]: 5.89 M

[2H]C1([2H])C[C@@]([2H])(N2Cc3cc(NC(=O)CCCCCCCCNC(=O)C[C@@H]4N=C(c5ccc(Cl)cc5)c5c(sc(C)c5C)-n5c(C)nnc54)ccc3C2=O)C(=O)NC1=O [JQ1-(R)-Len-d3]
pIC50 (M) [2]: 6.26 M
IC50 [2]: 556 nM
Kd [2]: 390 nM
pKD (M) [2]: 6.41 M
pIC50 (M) (His6-CRBN/DDB1): 6.95 M
IC50 (His6-CRBN/DDB1): 112 nM
Kd (His6-CRBN/DDB1): 78.9 nM
pKD (M) (His6-CRBN/DDB1): 7.10 M

[2H]C1([2H])C[C@@]([2H])(N2Cc3cc(CNC(=O)Nc4ccc(C)c(Cl)c4)ccc3C2=O)C(=O)NC1=O [(R)-CC885-d3]
pIC50 (M) (His6-CRBN/DDB1): 6.24 M
IC50 (His6-CRBN/DDB1): 572 nM
pKD (M) (His6-CRBN/DDB1): 6.40 M

C#CCCC1(CC(=O)Nc2ccc3c(c2)CN(C2CCC(=O)NC2=O)C3=O)N=N1 (racemic)
pIC50 (M) (His6-CRBN/DDB1): 7.57 M
Kd (His6-CRBN/DDB1): 18.9 nM and 19 nM
pKD (M) (His6-CRBN/DDB1): 7.72 M
pIC50 (M) [1]: 5.59 M
IC50 [1]: 2540 nM
Kd [1]: 1260 nM
pKD (M) [1]: 5.90 M

[2H]C1([2H])C[C@]([2H])(N2Cc3cc(NC(=O)CCCCCCCCNC(=O)C[C@@H]4N=C(c5ccc(Cl)cc5)c5c(sc(C)c5C)-n5c(C)nnc54)ccc3C2=O)C(=O)NC1=O [JQ1-(S)-Len-d3]
pIC50 (M) [2]: 7.37 M
IC50 [2]: 42.7 nM and 43 nM
Kd [2]: 29.9 nM and 30 nM
pKD (M) [2]: 7.52 M
pIC50 (M) (His6-CRBN/DDB1): 8.78 M
IC50 (His6-CRBN/DDB1): 1.65 nM

[2H]C1([2H])C[C@@]([2H])(N2Cc3cc(NC(=O)CC4(CCC#C)N=N4)ccc3C2=O)C(=O)NC1=O
pIC50 (M) (His6-CRBN/DDB1): 5.85 M
IC50 (His6-CRBN/DDB1): 1410 nM
Kd (His6-CRBN/DDB1): 986 nM
pKD (M) (His6-CRBN/DDB1): 6.01 M
pIC50 (M) [1]: 4.64 M
IC50 [1]: 22900 nM
Kd [1]: 11300 nM
pKD (M) [1]: 4.95 M

[2H]C1([2H])C[C@]([2H])(N2Cc3cc(CNC(=O)Nc4ccc(C)c(Cl)c4)ccc3C2=O)C(=O)NC1=O [(S)-CC885-d3]
pIC50 (M) (His6-CRBN/DDB1): 8.36 M
IC50 (His6-CRBN/DDB1): 4.41 nM
